Measured values reported in ChEMBL document CHEMBL1135414, “Structure-activity relationships at human and rat A2B adenosine receptors of xanthine derivatives substituted at the 1-, 3-, 7-, and 8-positions” (J Med Chem, 2002).
pKi: −log10 of the molar value.

Chains of the proteins cited; added tags and fusions are not shown.
UniProt P25099, whole entry: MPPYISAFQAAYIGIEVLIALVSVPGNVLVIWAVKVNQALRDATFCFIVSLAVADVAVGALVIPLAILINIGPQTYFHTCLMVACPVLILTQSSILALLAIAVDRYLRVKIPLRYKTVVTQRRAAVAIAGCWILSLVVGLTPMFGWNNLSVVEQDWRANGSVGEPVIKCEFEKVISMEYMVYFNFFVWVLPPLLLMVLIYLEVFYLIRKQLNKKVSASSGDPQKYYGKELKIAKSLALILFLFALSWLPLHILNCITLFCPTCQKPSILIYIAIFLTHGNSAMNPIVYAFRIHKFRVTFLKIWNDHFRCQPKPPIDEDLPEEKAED

Target: Adenosine receptor A1 (Rattus norvegicus, UniProt P25099)
Experiment: Binding affinity of specific [3H]R-PIA binding to rat Adenosine A1 receptor in HEK293 cells
Type: cell-based

pKi: 5.05
SMILES: CCCCn1c(=O)[nH]c2nc[nH]c2c1=O
